# Experimental data: patent publication US20130331610A1, “Halogenated Pyrazolo[1,5-A]Pyrimidines, Processes, Uses, Compositions and Intermediates” (priority 2005, published 2013)
# By UniProt entry, the sequences of proteins in these tests, tags left out. Residues count along the entry.
# UniProt P18508, 39-466: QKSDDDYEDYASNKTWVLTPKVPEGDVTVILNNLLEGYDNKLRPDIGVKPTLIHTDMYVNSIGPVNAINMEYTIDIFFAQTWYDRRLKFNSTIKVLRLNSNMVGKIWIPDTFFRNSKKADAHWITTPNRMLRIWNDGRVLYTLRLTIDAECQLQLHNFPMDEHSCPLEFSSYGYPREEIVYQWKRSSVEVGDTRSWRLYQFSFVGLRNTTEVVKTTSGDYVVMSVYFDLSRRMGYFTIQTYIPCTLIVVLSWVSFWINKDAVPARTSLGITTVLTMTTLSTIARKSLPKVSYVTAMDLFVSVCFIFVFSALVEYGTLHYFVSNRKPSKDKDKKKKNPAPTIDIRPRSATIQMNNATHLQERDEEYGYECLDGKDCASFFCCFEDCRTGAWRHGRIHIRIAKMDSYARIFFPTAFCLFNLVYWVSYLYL
# UniProt P23576, 29-451: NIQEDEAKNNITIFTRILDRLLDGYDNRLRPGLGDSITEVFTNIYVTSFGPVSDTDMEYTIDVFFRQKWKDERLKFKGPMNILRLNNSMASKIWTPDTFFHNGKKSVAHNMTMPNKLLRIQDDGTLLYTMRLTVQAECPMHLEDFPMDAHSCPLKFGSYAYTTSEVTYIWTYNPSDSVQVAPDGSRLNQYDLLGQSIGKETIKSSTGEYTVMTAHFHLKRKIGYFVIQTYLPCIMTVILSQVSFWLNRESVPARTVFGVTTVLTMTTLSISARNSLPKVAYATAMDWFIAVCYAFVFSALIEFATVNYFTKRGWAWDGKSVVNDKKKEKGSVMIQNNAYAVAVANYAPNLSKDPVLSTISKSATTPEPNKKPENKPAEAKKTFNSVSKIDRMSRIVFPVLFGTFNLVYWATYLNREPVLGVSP
# Assays:
# [1] = test system: α1 subunit of GABAA receptor; conditions: for selectivity α2/α1 ratio: ratio of α2 and α1 affinities (Ki)
# Excerpt: % specific binding=(X−N/T−N)×100
# HepG2 cells = test: In vitro cell toxicity in HepG2 at 24 h (MTS); type: cell-based, human; conditions: 100 μM
# Procedure: In Vitro Determination of Cell Toxicity in HepG2 at 24 h
# HepG2 cells (human hepatocellular carcinoma) were obtained from the American Type Culture Collection (ATCC) and cultured in Eagle's Minimum Essential Medium (Eagle) with Earle's balanced salt solution adjusted to contain 1.87 mM Glutamax™ I, 0.1 mM non-essential amino acids, 1.0 mM sodium pyruvate, 100000 U/L penicillin, 10000 μg/L streptomycin 90%; fetal bovine serum, 10%. Promega CellTiter 96® Aqueous Non-Radioactive Cell Viability Assay contains the tetrazolium compound [3-(4,5-dimethylthiazol-2-yl)-5-(3-carboxymethoxyphenyl)-2-(4-sulfophenyl)-2H-tetrazolium, inner salt (MTS). The conversion of MTS into the aqueous soluble formazan product is accomplished by dehydrogenase enzymes found in metabolically active cells. The quantity of formazan product is directly proportional to the number of living cells in culture.
# Compounds were dissolved in DMSO to achieve an initial concentration of 100 mM. Serial dilutions were made from this stock solution into DMSO to achieve concentrations of 10, 1, 0.1 and 0.01 mM. The stock solution and serial dilutions were then diluted 1:100 with cell culture medium to obtain […] final assay concentrations of […]. The final DMSO concentration in all wells was 1% v/v. HepG2 cells were incubated with test compounds for 24 hours. Relative cell viability was determined spectrophotometrically at 490 nm following the addition of the MTS dye and further one-hour incubation. Tamoxifen was used as the positive control.
# The percent absorbance of the samples treated with the test article was compared to the untreated sample to calculate the percentage of control.
# [2] = target: α2 subunit of GABAA receptor (Rattus norvegicus, UniProt P18508+P23576); test: biochemical; conditions: for inhibition at 10 µM: read-out: % Inhib 10^−5 M; for inhibition at 0.1 µM: read-out: % Inhib 10^−7 M
smiles,measurement,setting,value
"CN(c1cccc(-c2ccnc3c(C(=O)c4cccs4)cnn23)c1)S(C)(=O)=O [Example 3 WO2005014597, N-{3-[3-(thiophene-2-carbonyl)-pyrazolo[1,5-a]pyrimidin-7-yl]-phenyl}-N-methyl-methanesulfonamide, reference compound]",selectivity α2/α1 ratio,[1],5.0
"C#CCN(c1cccc(-c2ccnc3c(C(=O)c4cccs4)cnn23)c1)S(C)(=O)=O [Example 16 WO2005014597, N-{3-[3-(thiophene-2-carbonyl)-pyrazolo[1,5-a]pyrimidin-7-yl]-phenyl}-N-prop-2-ynyl-methanesulfonamide, reference compound]","cell toxicity in HepG2, percentage of control (relative cell viability)",HepG2 cells,53.2%
same,inhibition at 10 µM,[2],100%
same,inhibition at 0.1 µM,[2],87.2%
"CC(=O)N(C)c1cccc(-c2ccnc3c(C(=O)c4cccs4)cnn23)c1 [Indiplon, N-{3-[3-(thiophene-2-carbonyl)-pyrazolo[1,5-a]pyrimidin-7-yl]-phenyl}-N-methyl-acetamide, reference compound]",selectivity α2/α1 ratio,[1],7.7
same,"cell toxicity in HepG2, percentage of control (relative cell viability)",HepG2 cells,69.8%
same,inhibition at 10 µM,[2],99.2%
same,inhibition at 0.1 µM,[2],65.7%
"CC(=O)N(C)c1cc(-c2ccnc3c(C(=O)c4cccs4)cnn23)ccc1F [Preparative example 2, N-{2-Fluoro-5-[3-(thiophene-2-carbonyl)-pyrazolo[1,5-a]pyrimidin-7-yl]-phenyl}-N-methyl-acetamide]",selectivity α2/α1 ratio,[1],9.6
same,increased selectivity (α2/α1 ratio),[1]; versus example 3 in WO2005014597,92%
same,increased selectivity (α2/α1 ratio),[1]; versus indiplon,25%
same,"cell toxicity in HepG2, percentage of control (relative cell viability)",HepG2 cells,107.19%

# Read-outs that look alike come from different tables or passages of the source.
